# Reference: paper PMC7041276
# Target: histidine-tagged DNMT3A (UniProt Q9Y6K1)
substance,measurement,value
GST-labeled AGO4 (from UniProt Q9HCK5 1-861) (natural protein),"DNMT Magnetic Beads (DMB) assay, acellular: incorporation of radiolabeled methyl groups into synthetic miRNA-181a-5p by DNMT3A with or without AGO4 (300 nM), AdoMet 900 nM",9 times
